Here are results for one substance from publication PMC3415323 (International Journal of Nanomedicine, 2012).

The conditions of series [1]: rat, in vivo, 5 mg/kg.

Consider Hydroxysafflor yellow A [HSYA], for which the “Frel (relative bioavailability)” value in series [1] is given as 100%. Moreover, in series [1] (po), the “AUC0–12” value was 156.81 ± 9.53 µg·min/mL; the Cmax (as a rule, the maximum level reached in the sampled fluid or tissue) was determined as 640 ± 140 ng/mL; the mean residence time MRT (commonly a mean duration of stay, worked out from the concentration-time curve) is 6.0562 ± 0.3438 h; the Tmax (in general, the time from dosing to the highest level) is 2.17 ± 0.6237 h. Further, in the series on Caco-2 cell monolayers (0.4 mg/mL HSYA, apical to basolateral), the Papp is 3.52 ± 1.41 × 10^−6 cm/s. Moreover, the “membrane permeability of HSYA” value in the series on Caco-2 cell monolayers (HSYA uptake and transport experiments) was “very low”.
